In patent US9187486B2 (AMGEN INC., priority 2011, dated 2015) one finds IC50 data, which are given here for 17 molecules.

The chains behind the UniProt entries cited, without tags or fusion partners. Where a name states a change or a piece, a line headed by the entry shows the natural chain unless it says otherwise.
UniProt P11309, whole entry: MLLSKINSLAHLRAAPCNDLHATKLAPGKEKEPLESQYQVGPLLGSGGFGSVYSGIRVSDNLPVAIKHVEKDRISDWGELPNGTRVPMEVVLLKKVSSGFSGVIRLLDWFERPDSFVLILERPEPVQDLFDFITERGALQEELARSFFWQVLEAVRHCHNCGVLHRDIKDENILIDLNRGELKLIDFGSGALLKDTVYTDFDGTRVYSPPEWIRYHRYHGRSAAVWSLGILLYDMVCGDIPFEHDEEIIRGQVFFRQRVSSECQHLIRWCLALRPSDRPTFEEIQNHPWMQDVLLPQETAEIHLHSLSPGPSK
UniProt Q9P1W9: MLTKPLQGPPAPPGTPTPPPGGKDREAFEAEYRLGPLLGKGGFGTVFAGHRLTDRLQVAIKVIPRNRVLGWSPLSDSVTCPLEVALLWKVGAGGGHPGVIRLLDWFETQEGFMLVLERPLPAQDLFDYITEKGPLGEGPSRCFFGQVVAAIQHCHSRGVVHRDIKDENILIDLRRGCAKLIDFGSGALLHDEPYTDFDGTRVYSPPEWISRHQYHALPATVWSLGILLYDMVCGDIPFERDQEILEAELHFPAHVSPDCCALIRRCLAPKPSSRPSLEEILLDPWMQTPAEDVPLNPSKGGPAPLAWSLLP

In general, pIC50 refers to −log10 of the IC50, conventionally taken in molar units.

pIC50: −log10 of the molar value. Where two headings read alike, the source gives them in different places. Where only a bound is given, the exact number is not on record here.

One experiment deals with Pim-1 (Homo sapiens (Human), UniProt P11309). The experiment in a line: Pim enzyme assay (HTRF, phosphorylation of biotinylated-BAD (S112) peptide), Pim-1. The experiment is classed as biochemical. As to conditions: read-out: Pim-1 IC50 IP. The text has this:
(§1) Full-length human cDNAs encoding Pim-1 (MGC ID 3913552) or Pim-2 (IMAGE ID 5092935) were purchased from Invitrogen, Carlsbad, Calif. These cDNAs were used as templates in PCR reactions to produce full-length DNA clones of the PIMs. Oligonucleotide PCR primers for Pim-1 were 5′-[…]-3′ and 5′-[…]-3′. Oligonucleotide PCR primers for Pim-2 were 5′-[…]-3′ and 5′-[…]-3′. PCR products were digested with BclI and EcoRI for Pim-1 and BamHI and EcoRI for Pim-2 and ligated into a modified baculovirus transfer vector (pFastBac 1) cleaved with BamHI and EcoRI. For bacterial expression, the same cleaved PCR products encoding Pim-1 or Pim-2 were ligated into a modified E. coli expression vector pET28(a) cleaved with BamHI and EcoRI. Amino-terminal hexahistidine tags followed by a thrombin cleavage site were previously added to the vectors using standard methods of molecular biology. Recombinant baculoviruses expressing Pim-1 or Pim-2 were made using standard methods (Fastbac manual, Invitrogen, Carlsbad, Calif.). Infection of Sf9 cells was done at an m.o.i. of greater than 5 for 24-48 h. Cells were harvested by centrifugation and frozen at −80 C. For E. coli expression, cells carrying pET28-His6-Th-Pim-1 or pET28-His6-Th-Pim-2 were picked from a single colony and grown o/n in LB media. The o/n culture was used to inoculate a 2 liter flask with 500 mL media. This was grown o/n and used to inoculate 15-20 liters of Terrific Broth in a New Brunswick Scientific fermentor. The E. coli were grown at 37° C. to and OD600>1.6. The temperature was dropped to 18° C. and o/n expression was induced with 0.5 mM IPTG. Cells were harvested by centrifugation and frozen at −80° C.
(§2) The frozen cell pellets were thawed by stirring in chilled lysis buffer (0.05 M HEPES, pH 8.0, 0.25 M NaCl, 0.01 M 2-mercaptoethanol, 10% (w/v) glycerol, 0.5% (v/v) protease inhibitor cocktail (Sigma P-8340) at a ratio of 1 L/200 g cells until homogeneous. The thawed suspension was applied to a microfluidizer at 10,000 PSI to disrupt the cells and the whole lysates were clarified by centrifugation at 50,000×g for 90 min, 4° C. Imidazole was added to the clarified lysate to a final concentration of 2.5 mM and the lysate was mixed with 10 mL of Talon resin (Clontech) and the slurry rocked gently overnight at 4° C. The slurry was centrifuged at 1,000×g for 5 min, the supernatant decanted, and the resin suspended in 40 mL of lysis wash buffer (lysis buffer at 0.75 M NaCl). This step was repeated 3× and the resin was transferred to a 2.5 cm glass column. Ten column volumes of wash buffer (0.05 M HEPES, pH 8.0, 0.1 M NaCl, 0.01 M 2-mercaptoethanol, 10% (w/v) glycerol) were applied to the resin followed by 10 column volumes of elution buffer (0.05 M HEPES, pH 8.0, 0.25 M NaCl, 0.01 M 2-mercaptoethanol, 10% (w/v) glycerol, 0.1 M imidazole). Fractions were analyzed by SDS-PAGE and those containing the protein of interest were pooled and concentrated. The concentrated protein was applied to an Amersham Superdex 75 (XK 26/60) column equilibrated in 0.025 M Tris-HCl, pH 7.5, 0.1 M NaCl, 0.01 M 2-mercaptoethanol, 10% (w/v) glycerol. […] Fractions containing the monomeric protein of interest were pooled, concentrated to ˜2 mg/mL, and stored at −80° C.
(§3) The phosphorylation of biotinylated-BAD (S112) peptide by full length recombinant Pim-1, Pim-2, or Pim-3 protein was detected with streptavidin:Allophycocyanin (APC) conjugate and a europium (Eu) labeled antibody directed against phosphorylated-BAD (S112). Excitation of Eu by a high energy laser light (337 nm) leads to a transfer of energy to the APC molecule, and results in an emission at 665 nm. The fluorescence is directly proportional to the amount of phosphorylated BAD peptide present in the reaction.
On the technique in general: Time-resolved FRET reads energy transfer from a long-lived donor to a nearby acceptor.

The next experiment concerns the target Pim-2 (Homo sapiens (Human), UniProt Q9P1W9). As to the kind of experiment: Pim enzyme assay (HTRF, phosphorylation of biotinylated-BAD (S112) peptide), Pim-2. Format: biochemical. To be noted: read-out: Pim-2 IC50 IP.
From the text: as §1, §2, §3

Setting [1] is: full length recombinant Pim-1, biotinylated-BAD (S112) peptide, HTRF, 96-well.
Setting [2] is: full length recombinant Pim-2, biotinylated-BAD (S112) peptide, HTRF, 96-well.

As to `N[C@@H]1CN(c2ccncc2Nc2ncc3ccc(-c4c(F)cccc4F)nn23)CC[C@H]1F` (racemic) [Example 43, rac-N-(4-(trans-3-amino-4-fluoropiperidin-1-yl)pyridin-3-yl)-2-(2,6-difluorophenyl)imidazo[1,5-b]pyridazin-7-amine], the pIC50 at Pim-1 (setting [1]) was 9.70; on Pim-2 (setting [2]), 8.96.

`C[C@@H]1C[C@H](N)CN(c2ccncc2Nc2ncc3ccc(-c4c(F)cccc4F)nn23)C1` (single isomer, unassigned) [Example 39, N-(4-((cis)-3-amino-5-methylpiperidin-1-yl)pyridin-3-yl)-2-(2,6-difluorophenyl)imidazo[1,5-b]pyridazin-7-amine]: the figures for the pIC50 on Pim-1 (setting [1]) and on Pim-2 (setting [2]) were 8.68 and 8.11, respectively.

Consider `N[C@@H]1CN(c2ccncc2Nc2ncc3ccc(-c4c(F)cccc4F)nn23)CC[C@H]1F` (single isomer, unassigned) [Example 44, N-(4-(trans-3-amino-4-fluoropiperidin-1-yl)pyridin-3-yl)-2-(2,6-difluorophenyl)imidazo[1,5-b]pyridazin-7-amine], for which the negative-log IC50 (pIC50) at Pim-2 (setting [2]) is 7.31. Consider `N[C@@H]1CN(c2ccncc2Nc2ncc3ccc(-c4c(F)cccc4F)nn23)CC[C@H]1F` (single isomer, unassigned) [Example 45, N-(4-(trans-3-amino-4-fluoropiperidin-1-yl)pyridin-3-yl)-2-(2,6-difluorophenyl)imidazo[1,5-b]pyridazin-7-amine], for which, at Pim-2 (setting [2]), the pIC50 is 8.96. Turning to `C[C@@H]1CN(c2ccncc2Nc2ncc3ccc(-c4c(F)cccc4F)nn23)[C@@H](C)CN1` (single isomer, unassigned) [Example 52, 2-(2,6-difluorophenyl)-N-(4-((trans)-2,5-dimethyl-1-piperazinyl)-3-pyridinyl)imidazo[1,5-b]pyridazin-7-amine], the pIC50 at Pim-1 (setting [1]) was 8.48; on Pim-2 (setting [2]) it was 6.98. In the case of `N[C@@H]1C=C(c2ccncc2Nc2ncc3ccc(-c4c(F)cccc4F)nn23)CCC1` (single isomer, unassigned) [Example 83, N-(4-(3-aminocyclohex-1-en-1-yl)pyridin-3-yl)-2-(2,6-difluorophenyl)imidazo[1,5-b]pyridazin-7-amine tris(2,2,2-trifluoroacetate)], on Pim-2 (setting [2]), the pIC50 was 8.20. Same read-out and setting: next, `N[C@@H]1C=C(c2ccncc2Nc2ncc3ccc(-c4c(F)cccc4F)nn23)CCC1` (single isomer, unassigned) [Example 84, N-(4-(3-aminocyclohex-1-en-1-yl)pyridin-3-yl)-2-(2,6-difluorophenyl)imidazo[1,5-b]pyridazin-7-amine tris(2,2,2-trifluoroacetate)]: 6.72. `C[C@H]1CC[C@H](N)CN1c1ccncc1Nc1ncc2ccc(-c3c(F)cccc3F)nn12` (single isomer, unassigned) [Example 85, N-(4-(5-amino-2-methylpiperidin-1-yl)pyridin-3-yl)-2-(2,6-difluorophenyl)imidazo[1,5-b]pyridazin-7-amine tris(2,2,2-trifluoroacetate)]: the pIC50 at Pim-1 was 8.57; at Pim-2, 7.41. Take `C[C@H]1CC[C@H](N)CN1c1ccncc1Nc1ncc2ccc(-c3c(F)cccc3F)nn12` (single isomer, unassigned) [Example 86, N-(4-(5-amino-2-methylpiperidin-1-yl)pyridin-3-yl)-2-(2,6-difluorophenyl)imidazo[1,5-b]pyridazin-7-amine tris(2,2,2-trifluoroacetate)]: the negative-log IC50 (pIC50) on Pim-1 (setting [1]) is greater than 10.00; at Pim-2 (setting [2]), 9.00. With `C[C@H]1CC[C@H](N)CN1c1ccncc1Nc1ncc2ccc(-c3c(F)cccc3F)nn12` (single isomer, unassigned) [Example 87, N-(4-(5-amino-2-methylpiperidin-1-yl)pyridin-3-yl)-2-(2,6-difluorophenyl)imidazo[1,5-b]pyridazin-7-amine tris(2,2,2-trifluoroacetate)], the results for the pIC50 on Pim-1 (setting [1]) and on Pim-2 (setting [2]) were greater than 10.00 and 9.52, respectively. For the molecule `C[C@H]1CC[C@H](N)CN1c1ccncc1Nc1ncc2ccc(-c3c(F)cccc3F)nn12` (single isomer, unassigned) [Example 88, N-(4-(5-amino-2-methylpiperidin-1-yl)pyridin-3-yl)-2-(2,6-difluorophenyl)imidazo[1,5-b]pyridazin-7-amine tris(2,2,2-trifluoroacetate)], the pIC50 on Pim-1 (setting [1]) was 8.18; on Pim-2 (setting [2]) it was 7.54. Take `C[C@H]1CC[C@@H](N)CN1c1ccncc1Nc1ncc2ccc(-c3ncccc3F)nn12` (single isomer, unassigned) [Example 94, N-(4-((cis)-5-amino-2-methylpiperidin-1-yl)pyridin-3-yl)-2-(3-fluoropyridin-2-yl)imidazo[1,5-b]pyridazin-7-amine tris(2,2,2-trifluoroacetate)]: the negative-log IC50 (pIC50) is 7.70 on Pim-1 (setting [1]) and 6.99 at Pim-2 (setting [2]). For `C[C@H]1CC[C@H](N)CN1c1ccncc1Nc1ncc2ccc(-c3ncccc3F)nn12` (single isomer, unassigned) [Example 96, N-(4-((trans)-5-amino-2-methylpiperidin-1-yl)pyridin-3-yl)-2-(3-fluoropyridin-2-yl)imidazo[1,5-b]pyridazin-7-amine tris(2,2,2-trifluoroacetate)] the same measures were 7.82 and 6.87. On to `C[C@H]1CC[C@H](N)CN1c1ccncc1Nc1ncc2ccc(-c3ncccc3F)nn12` (single isomer, unassigned) [Example 97, N-(4-((trans)-5-amino-2-methylpiperidin-1-yl)pyridin-3-yl)-2-(3-fluoropyridin-2-yl)imidazo[1,5-b]pyridazin-7-amine tris(2,2,2-trifluoroacetate)], for which the values for the pIC50 on Pim-1 (setting [1]) and at Pim-2 (setting [2]) were 9.70 and 8.55, respectively. Regarding `C[C@H]1C[C@H](N)CN(c2ccncc2Nc2ncc3ccc(-c4c(F)cccc4F)nn23)C1` [Example 33, N-(4-((3S,5S)-3-amino-5-methylpiperidin-1-yl)pyridin-3-yl)-2-(2,6-difluorophenyl) imidazo[1,5-b]pyridazin-7-amine], the results for the pIC50 on Pim-1 (setting [1]) and at Pim-2 (setting [2]) were 9.40 and 9.10, respectively.

As to `N[C@H]1CCCN(c2ccncc2Nc2ncc3ccc(-c4ncccc4F)nn23)C1` [Example 40, N-(4-((3S)-3-amino-1-piperidinyl)-3-pyridinyl)-2-(3-fluoro-2-pyridinyl)imidazo [1,5-b]pyridazin-7-amine], the negative-log IC50 (pIC50) at Pim-1 was 9.70. As to `C[C@H]1CN(c2ccncc2Nc2ncc3ccc(-c4c(F)cccc4F)nn23)[C@@H](C)CN1` [Example 49, 2-(2,6-difluorophenyl)-N-(4-((2S,5S)-2,5-dimethylpiperazin-1-yl)pyridin-3-yl)imidazo[1,5-b]pyridazin-7-amine], the pIC50 at Pim-1 (setting [1]) is 7.74; at Pim-2 (setting [2]), 6.95.
